Data reported in patent publication US10988455B2, “1,2,4-triazine-4-amine derivatives” (Heptares Therapeutics Limited, priority 2010, dated 2021).
Like-named read-outs stand apart in the source and are kept apart here.

By UniProt entry, the sequences of proteins in these tests, tags left out.
UniProt P30542, whole entry: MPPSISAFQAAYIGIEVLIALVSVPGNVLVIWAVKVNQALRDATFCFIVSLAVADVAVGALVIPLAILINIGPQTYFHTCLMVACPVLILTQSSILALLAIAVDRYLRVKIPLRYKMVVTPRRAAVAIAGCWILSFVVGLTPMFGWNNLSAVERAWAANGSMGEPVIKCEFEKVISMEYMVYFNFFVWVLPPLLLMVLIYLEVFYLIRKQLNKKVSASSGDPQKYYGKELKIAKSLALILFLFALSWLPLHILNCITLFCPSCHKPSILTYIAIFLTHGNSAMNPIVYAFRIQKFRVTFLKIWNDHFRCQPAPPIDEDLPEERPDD

Legend:
[1] = molecular target: human adenosine A1 receptor (Homo sapiens (Human), UniProt P30542); test: CHO-hA1 [3H]DPCPX binding assay (Test A)
[2] = molecular target: human adenosine A2a receptor (Homo sapiens (Human), UniProt P29274); test: HEK293-hA2a [3H]-ZM241385 binding assay (Test A)

Row | SMILES | pKi A1 [1] | pKi A2a [2] | pKi A2a ([2]; human A2a receptor, HEK293 membranes, 1 nM [3H]ZM241385, 25° C., 1 h)
1 | Nc1nnc(-c2cc(Cl)cc(Cl)c2)c(-c2ccccc2)n1 [1(xiii), 6-(3,5-Dichlorophenyl)-5-phenyl-1,2,4-triazin-3-amine] | 7.36 | 8.40 | –
2 | Cc1cc(-c2nnc(N)nc2-c2ccccc2)cc(C(F)(F)F)n1 [Example 1(ccix), 6-[2-methyl-6-(trifluoromethyl)pyridin-4-yl]-5-phenyl-1,2,4-triazin-3-amine] | – | – | 8.59
3 | Nc1nnc(-c2cccc(Cl)c2)c(-c2ccccc2)n1 [Example 1(vi), 6-(3-Chlorophenyl)-5-phenyl-1,2,4-triazin-3-amine] | 7.25 | 7.29 | –
